Measurements as given in US20060166866A1, “Cell adhesion inhibitors” (Biogen, Inc., a Massachusetts corporation, priority 1995, published 2006).

Sequences of proteins named here, by UniProt entry; tags and fusion partners are left off. Residues count along the entry.
UniProt P05556, 21-798 limits assumed: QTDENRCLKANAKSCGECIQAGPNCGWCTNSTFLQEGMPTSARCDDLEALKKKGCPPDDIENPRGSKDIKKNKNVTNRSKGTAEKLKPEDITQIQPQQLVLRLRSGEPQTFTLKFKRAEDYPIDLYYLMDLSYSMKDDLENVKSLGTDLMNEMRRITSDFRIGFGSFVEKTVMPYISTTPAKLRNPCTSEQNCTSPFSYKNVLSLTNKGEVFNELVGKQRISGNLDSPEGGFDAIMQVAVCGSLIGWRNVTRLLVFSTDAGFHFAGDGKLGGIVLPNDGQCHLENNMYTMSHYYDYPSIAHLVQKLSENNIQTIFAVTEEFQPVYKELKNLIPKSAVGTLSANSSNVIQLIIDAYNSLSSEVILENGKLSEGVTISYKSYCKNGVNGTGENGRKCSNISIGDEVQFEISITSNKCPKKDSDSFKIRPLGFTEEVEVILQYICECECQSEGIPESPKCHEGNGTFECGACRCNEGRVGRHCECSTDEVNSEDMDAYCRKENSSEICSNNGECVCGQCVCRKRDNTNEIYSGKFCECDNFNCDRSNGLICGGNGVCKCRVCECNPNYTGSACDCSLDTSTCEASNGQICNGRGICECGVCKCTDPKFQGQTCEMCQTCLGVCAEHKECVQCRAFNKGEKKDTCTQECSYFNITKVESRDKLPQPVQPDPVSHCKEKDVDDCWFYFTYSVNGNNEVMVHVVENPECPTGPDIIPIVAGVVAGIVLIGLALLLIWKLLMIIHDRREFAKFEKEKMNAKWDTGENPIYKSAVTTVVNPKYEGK
UniProt P13612, 34-1032 limits assumed: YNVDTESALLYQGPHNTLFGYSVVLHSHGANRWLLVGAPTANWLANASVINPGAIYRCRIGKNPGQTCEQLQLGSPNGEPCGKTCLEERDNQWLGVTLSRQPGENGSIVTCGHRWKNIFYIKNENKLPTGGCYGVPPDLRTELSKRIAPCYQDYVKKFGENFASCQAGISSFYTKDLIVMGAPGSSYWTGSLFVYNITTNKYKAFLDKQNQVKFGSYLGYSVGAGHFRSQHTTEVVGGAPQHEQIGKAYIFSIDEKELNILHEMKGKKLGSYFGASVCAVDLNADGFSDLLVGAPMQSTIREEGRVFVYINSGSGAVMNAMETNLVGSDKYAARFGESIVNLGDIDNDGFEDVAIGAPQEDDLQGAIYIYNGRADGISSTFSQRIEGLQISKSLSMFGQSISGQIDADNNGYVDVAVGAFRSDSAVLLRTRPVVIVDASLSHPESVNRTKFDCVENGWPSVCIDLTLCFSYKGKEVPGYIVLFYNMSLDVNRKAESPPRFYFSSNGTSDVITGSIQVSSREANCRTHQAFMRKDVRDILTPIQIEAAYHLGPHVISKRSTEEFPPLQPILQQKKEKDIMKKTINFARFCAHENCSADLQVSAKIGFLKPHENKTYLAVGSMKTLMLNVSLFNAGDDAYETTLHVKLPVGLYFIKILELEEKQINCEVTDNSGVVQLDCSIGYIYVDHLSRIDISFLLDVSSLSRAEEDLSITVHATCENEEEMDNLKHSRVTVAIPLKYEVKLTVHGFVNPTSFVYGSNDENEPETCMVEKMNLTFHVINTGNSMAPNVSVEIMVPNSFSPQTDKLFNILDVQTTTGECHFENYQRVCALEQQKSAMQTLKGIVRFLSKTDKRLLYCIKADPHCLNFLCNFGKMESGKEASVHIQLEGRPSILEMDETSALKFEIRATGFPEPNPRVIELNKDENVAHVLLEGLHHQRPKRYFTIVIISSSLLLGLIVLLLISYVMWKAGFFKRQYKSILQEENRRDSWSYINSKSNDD

Target: VLA4 (Homo sapiens, UniProt P05556+P13612)
Test: Inhibition of VLA4-dependent adhesion to BSA-CS1 (fluorescently labelled Ramos cells)
Conditions: binding of BCECF-labelled Ramos cells to CS1 peptide-coated wells, 2 mM MnCl2, 30 minutes at room temperature
Source text: For example, the cell adhesion inhibitory activity of these compounds may be measured by determining the concentration of inhibitor required to block the binding of VLA-4-expressing cells to fibronectin- or CS1-coated plates. In this assay microtiter wells are coated with either fibronectin (containing the CS-1 sequence) or CS-1. If CS-1 is used, it must be conjugated to a carrier protein, such as bovine serum albumin, in order to bind to the wells. Once the wells are coated, varying concentrations of the test compound are then added together with appropriately labelled, VLA-4-expressing cells. Alternatively, the test compound may be added first and allowed to incubate with the coated wells prior to the addition of the cells. The cells are allowed to incubate in the wells format least 30 minutes. Following incubation, the wells are emptied and washed. Inhibition of binding is measured by quantitating the fluorescence or radioactivity bound to the plate for each of the various concentrations of test compound, as well as for controls containing no test compound.
VLA-4-expressing cells that may be utilized in this assay include Ramos cells, Jurkat cells, A375 melanoma cells, as well as human peripheral blood lymophocytes (PBLs). […]
We dissolved BSA-SMCC (Pierce Chemical, Rockford, Ill.; Catalog,# 77115) in H2O at a concentration of 10 mg/mL. […] Samples were analyzed for cross-linking by SDS-PAGE. […]

Cc1ccccc1NC(=O)Nc1ccc(CC(=O)NC(CC(C)C)C(=O)NC(CC(=O)O)c2ccc3c(c2)OCO3)cn1 (stereo not shown)
IC50: < 50 nM
